How the values were obtained:
PDE4C1 = molecular target: T1, PDE4C1 (Homo sapiens, UniProt Q08493); assay: biochemical
T1 construct: gene PDE4C

The chains behind the UniProt entries cited, without tags or fusion partners. Where a name states a change or a piece, a line headed by the entry shows the natural chain unless it says otherwise. Residues count along the entry.
UniProt Q08493: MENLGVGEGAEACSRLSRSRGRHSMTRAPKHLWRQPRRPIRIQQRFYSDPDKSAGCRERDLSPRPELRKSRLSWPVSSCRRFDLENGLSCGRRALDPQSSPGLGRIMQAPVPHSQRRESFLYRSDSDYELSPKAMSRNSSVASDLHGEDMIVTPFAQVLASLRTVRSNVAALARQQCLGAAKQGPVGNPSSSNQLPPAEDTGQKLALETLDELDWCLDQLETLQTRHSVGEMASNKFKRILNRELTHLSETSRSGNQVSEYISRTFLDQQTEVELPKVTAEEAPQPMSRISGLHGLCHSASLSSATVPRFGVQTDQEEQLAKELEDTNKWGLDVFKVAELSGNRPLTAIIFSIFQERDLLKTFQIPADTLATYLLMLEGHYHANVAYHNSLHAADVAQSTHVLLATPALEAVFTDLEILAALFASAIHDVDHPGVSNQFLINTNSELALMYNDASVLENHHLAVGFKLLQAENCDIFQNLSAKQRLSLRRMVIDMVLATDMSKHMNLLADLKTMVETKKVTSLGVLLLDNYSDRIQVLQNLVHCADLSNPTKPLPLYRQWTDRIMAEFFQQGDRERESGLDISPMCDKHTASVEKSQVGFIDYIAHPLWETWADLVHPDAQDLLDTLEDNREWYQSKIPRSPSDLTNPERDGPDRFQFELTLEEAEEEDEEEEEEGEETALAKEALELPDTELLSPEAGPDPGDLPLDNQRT
UniProt P27815, 265-886 limits assumed: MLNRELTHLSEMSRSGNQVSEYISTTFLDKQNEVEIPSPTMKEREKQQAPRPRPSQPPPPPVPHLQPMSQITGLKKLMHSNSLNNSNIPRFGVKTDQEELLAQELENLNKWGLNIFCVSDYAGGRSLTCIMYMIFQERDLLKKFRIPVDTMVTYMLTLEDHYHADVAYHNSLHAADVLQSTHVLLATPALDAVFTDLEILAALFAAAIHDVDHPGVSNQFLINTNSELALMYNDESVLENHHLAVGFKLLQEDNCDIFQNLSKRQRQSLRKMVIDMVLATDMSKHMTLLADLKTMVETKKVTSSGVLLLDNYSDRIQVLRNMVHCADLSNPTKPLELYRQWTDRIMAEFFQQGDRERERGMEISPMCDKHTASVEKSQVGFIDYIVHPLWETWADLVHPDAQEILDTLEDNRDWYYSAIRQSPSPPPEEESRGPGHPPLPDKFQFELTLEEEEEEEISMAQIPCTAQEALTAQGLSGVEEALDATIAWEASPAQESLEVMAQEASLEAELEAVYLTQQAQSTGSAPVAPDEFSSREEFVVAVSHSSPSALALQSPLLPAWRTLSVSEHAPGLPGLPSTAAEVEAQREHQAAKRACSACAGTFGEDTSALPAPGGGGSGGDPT

PDE4A1 = molecular target: T2, PDE4A1 (Homo sapiens, UniProt P27815); assay: biochemical
T2 construct: gene PDE4A

- IC50 (PDE4C1): 63.1 ± 23.3 nM
- IC50 (PDE4A1): 2.33 ± 0.71 nM
Compound: CCOc1cc([C@@H](CS(C)(=O)=O)N2C(=O)c3cccc(NC(C)=O)c3C2=O)ccc1OC [apremilast]
